{"source": "ChEMBL document CHEMBL3108729", "about": "“Design, synthesis and anticonvulsant evaluation of N-(benzo[d]thiazol-2-ylcarbamoyl)-2-methyl-4-oxoquinazoline-3(4H)-carbothioamide derivatives: a hybrid pharmacophore approach” (Eur J Med Chem, 2013)", "test": "in vivo", "conditions": "albino, rat", "data": [{"compound": "NC(=O)N1c2ccccc2C=Cc2ccccc21", "note": "[CARBAMAZEPINE]", "values": [{"measurement": "selectivity ratio at 1 h", "value": 101}]}]}
